In patent US20090175981A1, “COMPOSITIONS, METHODS AND USES FOR A NOVEL FAMILY OF PEPTIDES” (priority 2004, published 2009):

Key:
aminopeptidase M = experiment: Degradation by aminopeptidase M
[1] = in vivo
[2] = mouse, in vivo

Me2Bmt-L-dO-I-V-V-dK-V-dL-K-dY-L-V-CH2OH [BT1583]
digestion by enzymes (enzymes): no known enzymes can digest it
degradation by aminopeptidase M (aminopeptidase M): resistant
absorption by the chicken GI track [1]: no or very little absorption
digestion in the GI track [1]: not digested
digestion in the GI track [2]: not digested

Read-outs that look alike come from different tables or passages of the source.
